# Screens: PubChem, several laboratories
# MC4R antag cAMP – human MC4R antagonism in cAMP assay. MC4R-expressing cells, MTII-stimulated cAMP, LANCE TR-FRET. inhibition, % at 6.5 µM. 0.48% of 360,000 active. AID 540295;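 active = inhibition above its plate's cutoff, the mean of tested wells on that plate plus 3 SD, cut at about 29% in these data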;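 also: 0% = Melanotan II alone and 100% = Melanotan II plus saturating MCL0020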
#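 Material: U2OS-MC4R stable cell line | Reagent: Melanotan II challenge after compound preincubation | Doses: One concentration, 6.5 µM nominal | Incubation: 30-min compound preincubation, 1-h Melanotan II challenge, 1-h detection, room temperature | Signal: TR-FRET cAMP assay | Replicates: One well per compound, no replicates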
# UUG fidelity – modulators of yeast start codon fidelity, primary screen, whole organism, S. cerevisiae, single point, plate reader | AID 602363, 2012 | S. cerevisiae UUG-firefly luciferase reporter, luminescence/redox ratio | activity score, % at 18.7 µM | hit rate 0.13% among 350,000;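 active = replicate mean at a twofold rise or more, about +100% in these data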;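 also: firefly luciferase made from a UUG start codon reports start codon fidelity; reporter light over untreated wells divided by growth signal over untreated wells; some hits fall short of that in this replicate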
# ARFGAP1 inhibitor – inhibitors of rat ARFGAP1 | Arfgap1-stimulated ARF1 GTP hydrolysis, GDP FP detection | inhibition, % at 16.5 µM | 0.26% of 360,000 active | AID 651572;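 active = inhibition above a per-plate limit, mean inhibition of low control wells plus 3 SD, cut at about 25% in these data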;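 also: 0% = DMSO wells with enzyme and 100% = wells lacking Arfgap1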
#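 Material: rat Arfgap1 GAP domain (His6, aa 1-136), purified enzyme. Also added: human ARF1(Δ1-17)-GTP substrate. Compound dosing: 16.5 µM single point, 1.26% DMSO. Timing: enzyme reaction 120 min at 25 °C after 20 min preincubation. Signal: GDP detection by fluorescence polarization. Read-out basis: percent inhibition of GAP-stimulated GDP formation, scaled between DMSO and no-Arfgap1 medians.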
# NRP1-CendR mod – alters CendR peptide binding to human NRP-1 | O14786 | FAM-RPARPAR peptide binding to NRP-1, fluorescence polarization | inhibition, % at 25 µM | 0.85% of 360,000 active | AID 602438;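 active = inhibition or corrected inhibition above about 18%, plus a signal ratio from 0.5 to 1.5, limit read from the data, passing the limit was not always enough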
# MC4R barr agon – human MC4R agonism via beta-arrestin; P32245; U2OS MC4R beta-arrestin complementation, luminescence; percent of melanotan II response, DMSO zero; activation, % at 8.9 µM; 0.98% of 360,000 active;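 active = activation above a per-plate cutoff, the mean activation of sample wells on that plate plus 3 SD, cut at about 8% in these data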
# ASAP1 inh – ASAP1 ArfGAP inhibition. inhibition, % at 16.5 µM. AID 624377. ASAP1-stimulated ARF1 GTP hydrolysis, GDP FP detection. 0.19% of 360,000 active; in the data active = inhibition above about 25%;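 also: 0% = vehicle with enzyme and substrate and 100% = no enzyme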
# cAMP nonselect – counter-screen for MC4R antagonists: nonselective cAMP signaling inhibitors | 26% of 1,600 active | inhibition, % at 6.5 µM | shares compounds with MC4R antag cAMP | parental U2OS, forskolin cAMP, LANCE TR-FRET | AID 602193;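 active = mean inhibition over triplicates above the low-control well mean plus 3 SD, set per campaign, cut at about 13% in these data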;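 also: signal is single emission at 671 nm which falls as cellular cAMP rises; 0% = forskolin-stimulated wells and 100% = buffer without forskolin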
# MC4R antag conf – human MC4R cAMP antagonism confirmation. MC4R-expressing cells, MTII-stimulated cAMP, TR-FRET. shares compounds with MC4R antag cAMP. inhibition, % at 6.5 µM. 27% of 1,600 active. AID 602195; in the data active = inhibition above about 29%;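 also: 0% = agonist stimulated wells alone and 100% = agonist stimulated wells plus saturating reference antagonist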
# Numbers without * were called inactive; . = no result. Sampled rows, rich in hits. Any-hit rate of the full collection: about 2.3%.
entry	Molecule	MC4R antag cAMP	UUG fidelity	ARFGAP1 inhibitor	NRP1-CendR mod	MC4R barr agon	ASAP1 inh	cAMP nonselect	MC4R antag conf
1	O=Cc1cn(-c2ccccc2)nc1-c1ccccc1	13.8	-13.9	-5.2	2.8	0.5	-1.8	.	.
2	CCN(CC)C(=O)CCCc1c[nH]c2ccccc12	32.1*	.	-3.8	-2.1	1.1	9.0	1.2	-11.3
3	CCCCN(C)C(=O)CCCc1c[nH]c2ccccc12	3.3	-7.1	-4.4	11.5	-1.3	2.2	.	.
4	Cc1cc(C=O)c(C)n1-c1cc(C(=O)O)cc(C(=O)O)c1	13.7	.	1.9	-21.5	-2.5	-6.7	.	.
5	Cc1cc(C=O)c(C)n1-c1cccc(C(=O)O)c1	33.2*	.	4.3	-16.3	0.1	5.3	1.4	3.2
6	N#Cc1c(-c2ccccc2)nc(SCC(=O)Nc2ccccc2)[nH]c1=O	9.8	0.0	4.6	-19.6	-1.9	2.4	.	.
7	Cc1cc(NC(=O)CSc2nc(-c3ccccc3)c(C#N)c(=O)[nH]2)no1	34.5*	-12.9	-14.8	-3.6	1.9	-13.1	26.3*	50.0*
8	Cc1cc(C)nc(NS(=O)(=O)c2ccc(NC(=O)CSc3nc(-c4ccccc4)c(C#N)c(=O)[nH]3)cc2)n1	36.4*	.	3.4	-21.9	-1.8	5.2	16.8*	26.3
9	Cc1cc(C)nc(NS(=O)(=O)c2ccc(NC(=O)Cc3ccccc3)cc2)n1	35.0*	.	7.7	1.6	1.4	-0.3	1.8	-12.4
10	Cc1cccc(NC(=O)CSc2nc(-c3ccccc3)c(C#N)c(=O)[nH]2)c1C	8.7	.	-6.8	-3.8	-1.1	-6.4	.	.
11	COCC#Cc1ccc2c(c1)O[C@H](CN(C)Cc1ccccc1)[C@@H](C)CN([C@H](C)CO)S2(=O)=O	.	1.1	.	.	.	.	.	.
12	COc1ccc(Cc2noc(CN3CCN(Cc4cccc(Cl)c4)CC3)n2)cc1OC	33.8*	.	-4.2	7.3	-1.0	-5.4	16.6*	-3.6
13	C[C@H](O)C#Cc1cnc2c(c1)C(=O)N([C@@H](C)CO)C[C@H](C)[C@H](CN(C)C(=O)c1ccncc1)O2	.	-2.0	.	.	.	.	.	.
14	COc1ccc(S(=O)(=O)N(C)C[C@@H]2Oc3ccc(NC(=O)c4ccncc4)cc3C(=O)N([C@@H](C)CO)C[C@@H]2C)cc1	.	-3.9	.	.	.	.	.	.
15	O=C(Nc1cccc(NC(=O)c2ccc(Br)o2)c1)c1ccccc1	34.4*	-9.5	-3.9	0.8	-0.8	-4.5	1.4	5.0
16	O=C(c1ccccc1)c1cccc(NC(=O)c2ccc(Br)o2)c1	3.5	-9.9	3.9	-10.9	-1.4	1.7	.	.
17	C[C@@H]1CN([C@H](C)CO)S(=O)(=O)c2ccc(-c3ccc(C(=O)N(C)C)cc3)cc2O[C@H]1CN(C)C(=O)C1CCCCC1	.	17.3	.	.	.	.	.	.
18	N#Cc1ccc(/C=C/C(=O)c2ccco2)cc1	30.8*	.	-0.6	8.7	-1.2	-0.7	-2.5	8.3
19	Nc1ccc(/C=C/C(=O)c2ccco2)cc1	-9.3	.	-4.7	-201.0	-0.3	0.6	.	.
20	CO[C@H]1CN(C)C(=O)c2cc(NC(=O)c3cnccn3)ccc2OC[C@@H](C)N(C(C)=O)C[C@H]1C	.	-7.5	.	.	.	.	.	.
21	C[C@H]1CN([C@@H](C)CO)C(=O)c2cc(Br)cnc2O[C@H]1CN(C)C(=O)Nc1ccc(F)cc1	.	-8.0	.	.	.	.	.	.
22	CCN1CCN(C(=O)c2cc(S(=O)(=O)Nc3ccc(S(C)(=O)=O)cc3)ccc2Cl)CC1	30.4*	.	-3.2	8.5	1.9	0.9	-10.5	-27.4
23	CC(=O)N1CCN(C(=O)c2cc(S(=O)(=O)Nc3ccc(S(C)(=O)=O)cc3)ccc2Cl)CC1	-1.3	.	11.8	1.1	-0.7	9.9	.	.
24	CCC(=O)N1[C@H](CO)[C@@H](c2ccccc2)[C@@H]1CN(CC)C(=O)c1cccc(F)c1	.	16.6	.	.	.	.	.	.
25	CCOc1ccc(OCC)c(NC(=O)CN(c2ccc(C)cc2)S(=O)(=O)c2c(C)noc2C)c1	32.1*	-8.1	11.4	9.0	-0.2	-12.3	1.4	8.5

entry	Molecule	MC4R antag cAMP	UUG fidelity	ARFGAP1 inhibitor	NRP1-CendR mod	MC4R barr agon	ASAP1 inh	cAMP nonselect	MC4R antag conf
26	CCOc1ccc(OCC)c(NC(=O)CN(c2ccc(OC)cc2)S(=O)(=O)c2c(C)noc2C)c1	7.0	8.8	-3.2	1.7	-2.2	-12.4	.	.
27	CCC(CC)C(=O)N(C)c1c(C)nc2c(OCC(=O)N(C)C)cccn12	1.0	-19.2	-1.8	3.7	-0.6	0.9	.	.
28	CCC(CC)C(=O)N(C)c1c(C)nc2c(OCCOc3ccc(F)cc3)cccn12	30.5*	-26.3	-4.4	-1.3	1.9	-2.6	-0.8	1.8
29	CSc1ccccc1C(=O)Nc1c(C)cccc1C	31.9*	-1.7	3.7	-2.9	1.8	3.2	-2.1	-11.1
30	Clc1ccc(-c2nnc(-c3ccc(Br)cc3)c(N3CCSCC3)n2)cc1	6.1	-13.7	9.9	-0.1	-2.4	17.9	.	.
31	Clc1ccc(-c2nnc(-c3ccco3)nc2N2CCCCC2)cc1	29.4*	.	-1.7	1.5	-0.5	1.7	0.0	6.1
32	C#CCNC(=O)C1=C[C@@H](c2cn(C(C)=O)c3ccccc23)[C@H](CCCO)[C@@H](OCC)O1	.	7.8	.	.	.	.	.	.
33	O=S(=O)([O-])CCC[N+]1(CC#Cc2ccccc2)CCCCC1	35.5*	.	-19.4	-0.3	-0.1	0.5	-0.6	4.3
34	C#CC[N+]1(CC#Cc2ccccc2)CCCC1	1.9	-12.6	-6.6	4.3	-0.9	-2.9	.	.
35	Cc1nnc(SCC(=O)N2CC(=O)Nc3ccccc32)s1	2.9	.	-5.9	2.1	0.3	-19.2	.	.
36	O=C1CN(C(=O)CSc2nc(-c3ccc(Cl)cc3)cs2)c2ccccc2N1	30.7*	-15.6	19.1	2.6	2.4	-16.1	-3.8	-18.4
37	CNC[C@H]1Oc2cc(C#CC3CCCCC3)ccc2S(=O)(=O)N([C@@H](C)CO)C[C@H]1C	.	8.9	.	.	.	.	.	.
38	Cc1ccccc1N1CCN(C2CCCN(C(=O)CN3CCCC3=O)C2)CC1 (centres undefined)	30.6*	-6.7	-2.4	9.0	0.3	10.7	-2.2	-4.1
39	OC(COc1ccccc1)CN1CCOCC1 (centres undefined)	29.8*	-9.8	3.5	-2.4	-1.2	-5.9	-0.1	1.9
40	O=C(C[C@@H]1CC[C@H]2[C@@H](COC[C@H](O)CN2C(=O)c2ccncc2)O1)NCc1cc(F)cc(F)c1	.	-6.0	.	.	.	.	.	.
41	Cc1ccc(C)c(Cn2c(C)nc3c(sc(=S)n3-c3ccccc3)c2=O)c1	30.8*	-12.3	3.8	-7.0	-0.9	5.5	2.2	-5.3
42	O=C(Nc1ccc(Cl)cc1)N[C@H]1CC[C@@H](CCn2cc(Cc3ccccc3)nn2)O[C@@H]1CO	.	-15.6	.	.	.	.	.	.
43	O=C1COc2ccc(C(=O)COC(=O)c3ncc(Cl)c(Cl)c3Cl)cc2N1	29.4*	.	-8.1	0.8	4.7	-1.6	1.9	1.2

# In a second layout: entries from further up
[27] CCC(CC)C(=O)N(C)c1c(C)nc2c(OCC(=O)N(C)C)cccn12
  MC4R antag cAMP = 1.0
  UUG fidelity = -19.2
  ARFGAP1 inhibitor = -1.8
  NRP1-CendR mod = 3.7
  MC4R barr agon = -0.6
  ASAP1 inh = 0.9
  cAMP nonselect = .
  MC4R antag conf = .

[28] CCC(CC)C(=O)N(C)c1c(C)nc2c(OCCOc3ccc(F)cc3)cccn12
  MC4R antag cAMP = 30.5*
  UUG fidelity = -26.3
  ARFGAP1 inhibitor = -4.4
  NRP1-CendR mod = -1.3
  MC4R barr agon = 1.9
  ASAP1 inh = -2.6
  cAMP nonselect = -0.8
  MC4R antag conf = 1.8

[29] CSc1ccccc1C(=O)Nc1c(C)cccc1C
  MC4R antag cAMP = 31.9*
  UUG fidelity = -1.7
  ARFGAP1 inhibitor = 3.7
  NRP1-CendR mod = -2.9
  MC4R barr agon = 1.8
  ASAP1 inh = 3.2
  cAMP nonselect = -2.1
  MC4R antag conf = -11.1

[30] Clc1ccc(-c2nnc(-c3ccc(Br)cc3)c(N3CCSCC3)n2)cc1
  MC4R antag cAMP = 6.1
  UUG fidelity = -13.7
  ARFGAP1 inhibitor = 9.9
  NRP1-CendR mod = -0.1
  MC4R barr agon = -2.4
  ASAP1 inh = 17.9
  cAMP nonselect = .
  MC4R antag conf = .
